# Apparent affinities of Ab-14 variants for a coronavirus HR2 peptide

Binding partner: SARS-CoV-2 spike HR2 peptide, sequence PDVDLGDISGINAS.

Parent scFv Ab-14: VH joined to VL by the linker GGGGSGGGGSGGGGS. Changes lie in the light chain CDRs alone.
VH: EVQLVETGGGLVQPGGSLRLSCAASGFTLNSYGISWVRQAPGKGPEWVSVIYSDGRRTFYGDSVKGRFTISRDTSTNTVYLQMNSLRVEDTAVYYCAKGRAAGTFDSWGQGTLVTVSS
VL: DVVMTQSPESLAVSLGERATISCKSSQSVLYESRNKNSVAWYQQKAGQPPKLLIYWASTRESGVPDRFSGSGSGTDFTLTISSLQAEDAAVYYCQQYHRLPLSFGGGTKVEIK

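The parent was found by panning a naive human phage display library on the peptide. This is the validation round: designs drawn from the data on random variants, tested in the same kind of assay. Group labels follow the data file (Ctrl: baseline library sampled from a position-specific scoring matrix, with some repeated check sequences; Rand: our label for a block that the file lists under HC and that is probably the random mutants of the ten best first-round binders; En: ensemble of fine-tuned language models; GP: Gaussian process model; HC: hill climbing; Gen: genetic algorithm; Gibbs: Gibbs sampling; a sequence that several methods proposed may carry one label only). In AlphaSeq, yeast of one mating type display the scFv and yeast of the other type display the target. Mating (16 h, 30 °C) was followed by selection of diploids and sequencing of their barcodes. The ratio of observed to expected reads was calibrated, replicate by replicate, on BCL2-family standards whose Kd was known from biolayer interferometry. Mating was done six times.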

Variants are written as CDR1, CDR2 and CDR3 of the light chain (limits as in the source). Parent: KSSQSVLYESRNKNSVA, WASTRES, QQYHRLPLS. Affinities are written as log10 Kd with Kd in nM; a lower number is a better binder. A mean of the replicates is given; it leaves out those without a signal. An entry "no signal" has no value in the source: the pair was not observed among the diploids in any replicate. This suggests poor binding but is not conclusive. The parent sequence was in this pool as ten entries: three were never detected, three once, and four in most replicates, with averages from 0.34 to 2.37. Nonspecific signal, from three strains lacking the peptide, appeared in 4% of pairings of all light chain designs, centred on 2.64 (5% of these signals below 1.59); values are not corrected for it. Values of this round are not directly comparable with the first-round values of the same sequences. The authors' rule: three or more of the six replicates give a measured affinity, fewer mean a poor binder.

| CDR-L1 | CDR-L2 | CDR-L3 | group | mean, log10 nM | detected |
|---|---|---|---|---|---|
| KLPQSVDYESRNKNSVA | DASTRES | QQYHRLPLS | GP_Gen | -0.13 | 6 of 6 |
| KLGQMTAIESHNLNSVA | QMDTRES | QQYDRLPLS | En_HC | 0.84 | 6 of 6 |
| HISPMQAMHYEAKNQVA | ETEQKYN | QQYIRLPLS | En_Gibbs | 0.51 | 6 of 6 |
| KSSQSVLYESRNKNSVA | SASTPEF | QQYHRLPLS | Ctrl | 1.94 | 4 of 6 |
| KIEQGVLYESRNKNSVA | GASTRES | QQYHRLPLS | GP_HC | 0.15 | 6 of 6 |
| KSSQGVLYESRNKNHVA | GASTRES | QQYHRLPLS | GP_HC | 1.22 | 6 of 6 |
| KLSQSVLYESRNKNSVA | WASTRFS | QQYHSLHLS | Ctrl | no signal | 0 of 6 |
| HFSVETMEFMGQNKNIA | EVTTTML | QQYARLPFM | En_Gibbs | 1.83 | 6 of 6 |
| KLSMSELYESRNWNSVA | NASLRES | QDYHRLPLS | GP_Gibbs | 0.65 | 6 of 6 |
| KLSDNQYAIDQDKHAIA | EGHSTEM | QQYMRLPLT | En_Gibbs | 0.11 | 6 of 6 |
| MISQLWNMGQFAINSVA | QASIRNS | QQYDRLPLM | En_Gen | 1.70 | 4 of 6 |
| KLYQSHLYESRNKNSVA | QASTRES | QQYHRLPLS | GP_Gen | 1.50 | 6 of 6 |
| KLSFSYLYESRNKNSVA | EASTRES | QQYHRLPLS | GP_Gen | 0.16 | 6 of 6 |
| KLYFNVGTASHNKQSIA | DMERRED | QQYHRLPLS | En_HC | 0.49 | 6 of 6 |
| TLYGLSNSSSINKNSVA | EMTTRED | QQYDRLPLI | En_Gen | 3.22 | 6 of 6 |
| KLQQWDLYESRNKNSVA | HASERES | QCYHRLPLS | GP_Gibbs | 0.02 | 6 of 6 |
| KLMQEQEYQSRNKNSVA | HASERES | QQYHRLPLS | GP_Gibbs | 0.54 | 6 of 6 |
| KIGMTLNTLMHTKNNVA | DLVTREE | QQYHRLPLS | En_Gen | 0.85 | 6 of 6 |
| MISQLYNMGTFAINSVA | QAELRND | QQYDRLPLT | En_Gen | no signal | 0 of 6 |
| MISQLFMYGSRHYNSIA | QAETREK | QQYDRLPLE | En_HC | 1.75 | 6 of 6 |
| KLSMFAHVETGVKNNVA | QMETREP | QQYDHLPLS | En_Gen | 0.40 | 6 of 6 |
| KSSISVLEESRNKNSVA | EASTRES | QQYHRLPLS | GP_HC | -0.20 | 6 of 6 |
| KMSQSWLYESRNKNSVA | NASTRMS | QQYHRLPLS | GP_Gen | -0.26 | 6 of 6 |
| KLPQSVLYESRNKNSVA | NASQRLS | QQYHRLPLS | GP_Gen | -0.23 | 6 of 6 |
| KMSQSWLYESRNSNSVA | EASTRES | QDYHRLPLS | GP_Gibbs | -0.32 | 6 of 6 |
| KFFGGIPEQERDDYSIA | KGTLRED | QQYQRLPLS | En_Gibbs | 0.35 | 6 of 6 |
| HLSANMWMQSSQWDAVA | QGDIANN | QQYSRLPLS | En_Gibbs | no signal | 0 of 6 |
| TITGEQNMSTQGNWSIA | QAEQKVH | QQYDRLPLA | En_Gibbs | 2.05 | 5 of 6 |
| HINKFMSQIGGARNNVA | GDTTLAQ | QHYHRLPLS | En_Gibbs | no signal | 0 of 6 |
| NISESMYFQSRMKNNIA | EVSTRER | QHYHRLPLS | En_HC | 1.27 | 6 of 6 |
| KQSQSWIYESRNKNSVA | GASTRES | QQYHRLPLS | GP_HC | -0.01 | 6 of 6 |
| KQSQSVLFENRNKNSVA | WASTRES | QQYHRWPLS | Ctrl | no signal | 0 of 6 |
| KMSGSDMMLSRNWNAVA | QASTREQ | QQYHRLPLS | GP_Gibbs | 0.27 | 6 of 6 |
| KITQILFPYGNSWHSVA | NANTLAA | QQYYMLPLM | En_Gibbs | 0.78 | 6 of 6 |
| MMSQVTGLGQRHRNNVA | QTSTREV | QQYDRLPLI | En_Gen | 0.79 | 6 of 6 |
| LSSQSVLYESRNDNSVA | SASTRES | QQYHRLPLS | Ctrl | 1.26 | 6 of 6 |
| MIGQMLGVQSNKIHSVA | QANLRED | QQYDRLPLD | En_Gen | 1.19 | 6 of 6 |
| KSSQSVLTESRNKNSVA | KASTRES | QQYHGLPLS | Ctrl | 2.40 | 1 of 6 |
| QLEWDQLWGANYDYSVA | ATDVISP | QQYHRLPLI | En_Gibbs | 0.50 | 6 of 6 |
| KLSQSWMQESRNKNSVA | QASTREQ | QQYARLPLS | GP_Gibbs | -0.27 | 6 of 6 |
| KLAMALSVEFGTYHGVA | DADHKAD | QQYNRLPLS | En_Gibbs | -0.08 | 6 of 6 |
| FLAYALDQDGLIKNNIA | QDNLLEN | QQYERLPLA | En_Gibbs | 1.84 | 2 of 6 |
| ILMQSVLYESRNKNSVA | HASLRED | QQYHRLPLS | GP_HC | 1.44 | 6 of 6 |
| KLSQSVMMESRNKNSVA | EASTRES | QQYHRLPLS | GP_Gen | -0.30 | 6 of 6 |
| KLGMTLNQLYEKKNNVA | DLVEREN | QQYHRLPLS | En_Gen | 0.36 | 6 of 6 |
| KLQQSQEYESRNKNSVA | HASTRED | QQYHRLPLS | GP_HC | 0.44 | 6 of 6 |
| MISQVLNTLYMTGNNVA | DLQEREE | QQYFRLPLS | En_Gen | 1.95 | 5 of 6 |
| FLSQSVLYESRNKNSVA | DASTRES | QQYHRLPLS | GP_Gen | 0.50 | 6 of 6 |
| MVTQMAMSGMTNKRSVA | NAETREH | QQYHRLPLM | En_Gen | 0.33 | 6 of 6 |
| KFSGSQLYESRNKNSVA | NASTRES | QQYRRLPLS | GP_Gibbs | -0.27 | 6 of 6 |
| KISQSFLYESRNKNSVA | GASTRES | QEYHRLPLS | GP_HC | 0.09 | 6 of 6 |
| KLSQSMLYESRNKNSVA | SASQRES | QQYHRLPLS | GP_Gen | 0.42 | 6 of 6 |
| CSSPVVLYESRNKNSVI | NASTRES | QQYHRLMLS | Rand | no signal | 0 of 6 |

Data: MIT Lincoln Laboratory AlphaSeq set, Li et al. 2023, doi:10.1038/s41467-023-39022-2, as distributed in FLAb.